Literature values in PMC8841740, “Fluorescent Ligand-Based Discovery of Small-Molecule Sulfonamide Agonists for GPR120” (Frontiers in Chemistry, 2022).

Test system: GPR120
Conditions: cited from earlier work

For `Cc1ccc(-c2ccc(F)cc2COc2ccc(CCC(=O)O)cc2)cc1` [TUG-891], the “pEC50 (Literature)” value is listed as 7.02 ± 0.09^15.
